{
  "source": "patent US20260345484A1",
  "about": "“Inhalable Epinephrine Formulation” (De Motu Cordis Pty Ltd, priority 2022, published 2026)",
  "test": "Particle size distribution / agglomeration on storage",
  "type": "physicochemical",
  "conditions": "storage to 4 weeks; listed as crystalline micronized epinephrine bitartrate",
  "note": "Entries after “also recorded” stand apart in the source; their conditions may differ.",
  "data": [
    {"compound": "CNC[C@H](O)c1ccc(O)c(O)c1", "note": "[micronized epinephrine bitartrate, epinephrine bitartrate]", "values": [
      {"measurement": "tendency to agglomerate", "result": "would form agglomerates; also recorded: naturally tends to agglomerate"}
    ]}
  ]
}
